In ChEMBL document CHEMBL4020717:
This is a selection: effects in other tests are not listed, and their absence says nothing.

The chains behind the UniProt entries cited, without tags or fusion partners. Residues count along the entry.
UniProt P06276, 29-602 limits assumed: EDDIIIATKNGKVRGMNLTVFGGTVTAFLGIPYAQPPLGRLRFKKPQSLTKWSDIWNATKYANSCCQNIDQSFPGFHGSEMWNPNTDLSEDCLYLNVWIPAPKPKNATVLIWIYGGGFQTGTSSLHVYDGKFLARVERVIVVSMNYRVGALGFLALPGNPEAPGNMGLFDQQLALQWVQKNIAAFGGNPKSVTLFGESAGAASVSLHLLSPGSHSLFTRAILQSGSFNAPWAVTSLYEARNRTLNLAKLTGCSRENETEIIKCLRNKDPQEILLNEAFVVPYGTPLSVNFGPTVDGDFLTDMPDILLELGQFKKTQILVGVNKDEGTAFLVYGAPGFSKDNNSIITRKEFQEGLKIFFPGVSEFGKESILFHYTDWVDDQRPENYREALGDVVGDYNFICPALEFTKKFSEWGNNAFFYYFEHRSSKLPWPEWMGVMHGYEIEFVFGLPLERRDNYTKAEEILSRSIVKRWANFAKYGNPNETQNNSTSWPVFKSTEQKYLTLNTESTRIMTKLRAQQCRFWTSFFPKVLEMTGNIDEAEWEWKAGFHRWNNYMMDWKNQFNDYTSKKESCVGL

Target: Cholinesterase (Homo sapiens, UniProt P06276)
Assay: Inhibition of human BChE using butyrylthiocholine as substrate measured for 30 secs by Ellman's method

Work on `CCOP(=O)(OCC)Oc1ccc([N+](=O)[O-])cc1` yielded an IC50 of 7 nM.
